From US20250129135A1, “Multi-Agonist and Use Thereof” (priority 2021, published 2025)

Protein sequences, listed by entry. Tags and fused reporters are not part of them. Residues count along the entry.
UniProt P47871, 26-477: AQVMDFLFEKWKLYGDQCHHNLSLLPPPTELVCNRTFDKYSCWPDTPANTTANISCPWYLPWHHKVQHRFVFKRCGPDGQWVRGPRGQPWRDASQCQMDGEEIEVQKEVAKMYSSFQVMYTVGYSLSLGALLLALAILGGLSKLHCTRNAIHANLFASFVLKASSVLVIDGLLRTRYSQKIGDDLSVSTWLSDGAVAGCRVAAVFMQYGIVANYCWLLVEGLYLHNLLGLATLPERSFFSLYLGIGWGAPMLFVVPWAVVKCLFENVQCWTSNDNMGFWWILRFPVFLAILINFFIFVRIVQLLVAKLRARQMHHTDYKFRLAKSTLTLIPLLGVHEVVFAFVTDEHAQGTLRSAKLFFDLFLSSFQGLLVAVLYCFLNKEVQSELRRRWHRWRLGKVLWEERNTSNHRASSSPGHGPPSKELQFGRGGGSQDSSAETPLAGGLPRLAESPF
UniProt P43220, 24-463: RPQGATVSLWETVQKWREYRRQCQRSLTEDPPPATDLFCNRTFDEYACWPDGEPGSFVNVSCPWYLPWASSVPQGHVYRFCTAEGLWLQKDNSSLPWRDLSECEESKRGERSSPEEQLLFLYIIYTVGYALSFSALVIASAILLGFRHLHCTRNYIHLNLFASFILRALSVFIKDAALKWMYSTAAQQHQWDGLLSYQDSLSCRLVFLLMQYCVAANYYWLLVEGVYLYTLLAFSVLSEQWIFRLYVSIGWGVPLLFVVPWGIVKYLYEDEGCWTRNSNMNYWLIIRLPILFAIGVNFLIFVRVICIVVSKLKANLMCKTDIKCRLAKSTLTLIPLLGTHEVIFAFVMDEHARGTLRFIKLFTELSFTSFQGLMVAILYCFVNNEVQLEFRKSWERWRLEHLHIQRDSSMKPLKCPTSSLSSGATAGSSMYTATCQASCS

Legend:
Human GIP R = biological target: T1, Human GIP R (Homo sapiens, UniProt P48546); assay: cAMP (HTRF) activity in CHO cells stably overexpressing GIP receptor; format: cell-based; settings: for Human GIP R Rel. A (Relative Activity): EC50 of human GIP / EC50 of compound
T1 construct: expressed in transfected cells; host or cells: CHO
T1 sequence (P48546 22-466): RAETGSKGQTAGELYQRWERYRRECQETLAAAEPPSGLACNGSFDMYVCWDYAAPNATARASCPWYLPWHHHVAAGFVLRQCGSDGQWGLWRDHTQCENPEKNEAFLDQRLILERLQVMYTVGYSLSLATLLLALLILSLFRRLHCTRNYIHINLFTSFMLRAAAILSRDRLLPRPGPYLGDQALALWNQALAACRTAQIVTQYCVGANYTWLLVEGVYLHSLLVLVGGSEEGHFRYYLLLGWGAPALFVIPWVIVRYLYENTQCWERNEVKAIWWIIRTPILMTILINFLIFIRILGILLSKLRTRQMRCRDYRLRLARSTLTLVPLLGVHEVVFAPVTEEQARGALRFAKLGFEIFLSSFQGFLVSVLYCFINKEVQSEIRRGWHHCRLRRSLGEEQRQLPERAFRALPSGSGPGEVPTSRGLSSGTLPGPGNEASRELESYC
Method: (§1) By measuring the cAMP signal response levels of the aforementioned cells, the agonistic activity of individual compound towards the corresponding receptor was determined. The intracellular cAMP content was measured using reagent kit available from Cisbio Corp. based on HTRF (homogeneous time-resolved fluorescence) technology.
(§2) The cell fluid was transferred to 10 ml of HBSS for resuspension, and centrifuged at 1000 rpm for 5 minutes at room temperature.
(§3) 10 μL cell suspension was added to each well in the 384 well plate. […] Using the ECHO liquid transfer system, 100 nL of the prepared compound solution was added to the corresponding cell suspensions in the 384 well plate, rotated and shaken at 1000 rpm for 1 minute to mix evenly, and then incubated at room temperature for 60 minutes. 10 μL of detection reagent was added to each well after drug incubation was completed, and incubation was performed in the kit at room temperature for 60 minutes. […] GraphPad Prism 5 plotting software was used to create compound concentration response curves and EC50 (nM) values was calculated.

Human GCG R = biological target: T2, Human GCG R (Homo sapiens, UniProt P47871); assay: cAMP (HTRF) activity in HEK-293 cells stably overexpressing human GCG receptor; format: cell-based; settings: EC50 of human GCG / EC50 of compound
T2 construct: expressed in transfected cells; host or cells: HEK-293
Method: as §1, §2, §3

Human GLP-1R = Human GLP-1R (Homo sapiens, UniProt P43220); assay: cAMP (HTRF) activity in HEK-293 cells stably overexpressing human GLP-1 receptor; format: cell-based; parameters: expressed in transfected cells; host or cells: HEK-293; settings: for Human GLP-1R Rel. A (Relative Activity): EC50 of human GLP-1 (7-37) / EC50 of compound
Method: as §1, §2, §3

3T3-L1 adipocytes = test system: 3T3-L1 adipocytes
Method: Mouse 3T3-L1 precursor adipocytes can be induced to differentiate into mature adipocytes. […] After the cells became full and contacted with each other, DMEM differentiation medium containing 20% FBS, 0.5 mM IBMX, 0.4 ug/mL dexamethasone, and 5 ug/mL insulin was used to induce differentiation of 3T3-L1 adipocyte. After 5 days of induction and cultivation, DMEM medium containing […], 4 ug/ml insulin, and 10 uM rosiglitazone was used to continue induction and cultivation for 3 days. Then, DMEM medium containing 10% FBS was used to continue cultivation for 2-3 days to induce mature 3T3-L1 adipocytes.
The cAMP level produced by the compound on 3T3-L1 adipocytes was determined in this experiment. The tested compound solution was diluted step by step according to a concentration gradient of 3 times, to obtain a total of 10 series of concentration solutions. The solutions were added to induced mature 3T3-L1 adipocytes and incubated at room temperature for 60 minutes. 10 μL detection reagent in the kit was added to each well after drug incubation, and incubated at room temperature for another 60 minutes. […] GraphPad Prism 5 plotting software was used to create compound concentration-effect curves and calculation was performed.

[1] = test system: human primary liver cells; format: cell-based; settings: for EC50: cAMP, at least 3 independent tests, read-out: EC50 on human primary liver cells; for Rel. A (Relative Activity) on human primary liver cells: relative to GCG
Method: The cAMP levels produced by compounds on human primary liver cells were determined in this experiment. Human primary liver cells were purchased from Lonza (cell product number HUCPG).
Frozen human primary liver cells were placed in a 37° C. constant temperature water bath for rapid thawing and recovery. The cell solution was transferred to 10 ml of HBSS for resuspension, and centrifuged at 1000 rpm for 5 minutes at room temperature.
10 μL cell suspension was added to each well in the 384 well plate. […] Using the ECHO liquid transfer system, 100 nL of the prepared compound solution was added to the corresponding cell suspensions in the 384 well plate, rotated and shaken at 1000 rpm for 1 minute to mix evenly, and then incubated at room temperature for 60 minutes. 10 μL of detection reagent was added to each well after drug incubation was completed, and incubation was performed for 60 minutes.

RIN-m5F cells = format: cell-based, rat; settings: for EC50: cAMP, at least 3 independent tests, read-out: EC50 on RIN-m5F rat pancreatic islet tumor cells; for Rel. A (Relative Activity) on RIN-m5F: relative to GLP-1(7-37)
Method: This experiment measured the cAMP level produced by the compound on RIN-mF cells.
Frozen […] cells were placed in a 37° C. constant temperature water bath for rapid thawing and recovery. The cell solution was transferred to 10 ml of HBSS for resuspension, and centrifuged at 1000 rpm for 5 minutes at room temperature.
10 μL cell suspension was added to each well in the 384 well plate. […] Using the ECHO liquid transfer system, 100 nL of the prepared compound solution was added to the corresponding cell suspensions in the 384 well plate, rotated and shaken at 1000 rpm for 1 minute to mix evenly, and then incubated at room temperature for 60 minutes. 10 μL of detection reagent was added to each wells after drug incubation was completed, and incubation was performed for 60 minutes.

SMILES | Human GIP R Rel. A (Relative Activity) (Human GIP R) [%] | Human GCG R Rel. A (Relative Activity) (Human GCG R) [%] | EC50 (Human GLP-1R) [nM] | Human GLP-1R Rel. A (Relative Activity) (Human GLP-1R) [%] | EC50 (3T3-L1 adipocytes; read-out: EC50 on mouse 3T3-L1 adipocyte, cAMP, at least 3 independent tests) [nM] | Rel. A (Relative Activity) on 3T3-L1 adipocyte (3T3-L1 adipocytes; relative to GIP) [%] | EC50 [1] [nM] | Rel. A (Relative Activity) on human primary liver cells [1] [%] | EC50 (Human GIP R) [nM] | EC50 (RIN-m5F cells) [nM] | Rel. A (Relative Activity) on RIN-m5F (RIN-m5F cells) [%]
CC[C@H](C)[C@H](NC(=O)[C@H](Cc1ccccc1)NC(=O)[C@H](C)NC(=O)C(C)(C)NC(=O)[C@H](CCC(N)=O)NC(=O)[C@H](C)NC(=O)[C@H](CCCCNC(=O)COCCOCCNC(=O)COCCOCCNC(=O)CC[C@H](NC(=O)CCCCCCCCCCCCCCCCCCC(=O)O)C(=O)O)NC(=O)[C@H](CCCCN)NC(=O)[C@H](CC(=O)O)NC(=O)[C@H](CC(C)C)NC(=O)[C@H](Cc1ccccc1)NC(=O)[C@@H](NC(=O)[C@H](CO)NC(=O)[C@H](Cc1ccc(O)cc1)NC(=O)[C@H](CC(=O)O)NC(=O)[C@H](CO)NC(=O)[C@@H](NC(=O)[C@](C)(Cc1ccccc1)NC(=O)[C@@H](NC(=O)CNC(=O)[C@H](CCC(N)=O)NC(=O)C(C)(C)NC(=O)[C@@H](N)Cc1ccc(O)cc1)[C@@H](C)O)[C@@H](C)O)[C@@H](C)CC)C(=O)N[C@@H](CCC(=O)O)C(=O)N[C@@H](Cc1ccccc1)C(=O)N[C@@H](CC(C)C)C(=O)N[C@@H](CC(C)C)C(=O)N[C@@H](CCC(=O)O)C(=O)N[C@H](C(=O)NCC(=O)N1CCC[C@H]1C(=O)N[C@@H](CO)C(=O)N[C@@H](CO)C(=O)NCC(=O)N[C@@H](C)C(=O)N1CCC[C@H]1C(=O)N1CCC[C@H]1C(=O)N1CCC[C@H]1C(=O)N[C@@H](CO)C(N)=O)[C@@H](C)O [Compound 12] | 220.73 | 13.67 | 0.014 | 314.29 | 5.97 | 63.64 | – | – | – | – | –
CC[C@H](C)[C@H](NC(=O)[C@H](Cc1ccccc1)NC(=O)[C@H](C)NC(=O)C(C)(C)NC(=O)[C@H](CCC(N)=O)NC(=O)[C@H](C)NC(=O)[C@H](CCCCNC(=O)COCCOCCNC(=O)COCCOCCNC(=O)CC[C@H](NC(=O)CCCCCCCCCCCCCCCCCCC(=O)O)C(=O)O)NC(=O)[C@H](CCCCN)NC(=O)[C@H](CC(=O)O)NC(=O)[C@H](CC(C)C)NC(=O)[C@](C)(CC(C)C)NC(=O)[C@@H](NC(=O)[C@H](CO)NC(=O)[C@H](Cc1ccc(O)cc1)NC(=O)[C@H](CC(=O)O)NC(=O)[C@H](CO)NC(=O)[C@@H](NC(=O)[C@](C)(Cc1ccccc1)NC(=O)[C@@H](NC(=O)CNC(=O)[C@H](CCC(N)=O)NC(=O)C(C)(C)NC(=O)[C@@H](N)Cc1ccc(O)cc1)[C@@H](C)O)[C@@H](C)O)[C@@H](C)CC)C(=O)N[C@@H](CCC(=O)O)C(=O)N[C@@H](Cc1ccccc1)C(=O)N[C@@H](CC(C)C)C(=O)N[C@@H](CC(C)C)C(=O)N[C@@H](CCC(=O)O)C(=O)N[C@H](C(=O)NCC(=O)N1CCC[C@H]1C(=O)N[C@@H](CO)C(=O)N[C@@H](CO)C(=O)NCC(=O)N[C@@H](C)C(=O)N1CCC[C@H]1C(=O)N1CCC[C@H]1C(=O)N1CCC[C@H]1C(=O)N[C@@H](CO)C(N)=O)[C@@H](C)O [Compound 14] | 1645.45 | 50.00 | 0.01 | 440.00 | – | – | 4.57 | 85.22 | 0.011 | 0.239 | 431.80
CC[C@H](C)[C@H](NC(=O)[C@H](Cc1ccccc1)NC(=O)[C@H](C)NC(=O)C(C)(C)NC(=O)[C@H](CCC(N)=O)NC(=O)[C@H](C)NC(=O)[C@H](CCCCNC(=O)COCCOCCNC(=O)COCCOCCNC(=O)CC[C@H](NC(=O)CCCCCCCCCCCCCCCCCCC(=O)O)C(=O)O)NC(=O)[C@H](CCCCN)NC(=O)[C@H](CC(=O)O)NC(=O)[C@H](CC(C)C)NC(=O)[C@H](Cc1ccccc1)NC(=O)[C@@H](NC(=O)[C@H](CO)NC(=O)[C@H](Cc1ccc(O)cc1)NC(=O)[C@H](CC(=O)O)NC(=O)[C@H](CO)NC(=O)[C@@H](NC(=O)[C@](C)(Cc1ccccc1)NC(=O)[C@@H](NC(=O)CNC(=O)[C@H](CCC(N)=O)NC(=O)C(C)(C)NC(=O)[C@@H](N)Cc1ccc(O)cc1)[C@@H](C)O)[C@@H](C)O)[C@@H](C)CC)C(=O)N[C@@H](CCC(=O)O)C(=O)N[C@@H](Cc1ccccc1)C(=O)N[C@@H](CC(C)C)C(=O)N[C@@H](CC(C)C)C(=O)N[C@@H](CCC(=O)O)C(=O)N[C@@H](CO)C(=O)N[C@@H](Cc1c[nH]cn1)C(=O)N1CCC[C@H]1C(=O)N[C@@H](CO)C(=O)N[C@@H](CO)C(=O)NCC(=O)N[C@@H](C)C(=O)N1CCC[C@H]1C(=O)N1CCC[C@H]1C(=O)N1CCC[C@H]1C(=O)N[C@@H](CO)C(N)=O [Compound 15] | 548.48 | 41.01 | 0.023 | 191.30 | – | – | 7.22 | 53.92 | – | 0.694 | 148.70
CC[C@H](C)[C@H](NC(=O)[C@H](Cc1ccccc1)NC(=O)[C@H](C)NC(=O)C(C)(C)NC(=O)[C@H](CCC(N)=O)NC(=O)[C@H](C)NC(=O)[C@H](CCCCNC(=O)COCCOCCNC(=O)COCCOCCNC(=O)CC[C@H](NC(=O)CCCCCCCCCCCCCCCCCCC(=O)O)C(=O)O)NC(=O)[C@H](CCCCN)NC(=O)[C@H](CC(=O)O)NC(=O)[C@H](CC(C)C)NC(=O)[C@H](Cc1ccccc1)NC(=O)[C@@H](NC(=O)[C@H](CO)NC(=O)[C@H](Cc1ccc(O)cc1)NC(=O)[C@H](CC(=O)O)NC(=O)[C@H](CO)NC(=O)[C@@H](NC(=O)[C@](C)(Cc1ccccc1)NC(=O)[C@@H](NC(=O)CNC(=O)[C@H](CCC(N)=O)NC(=O)C(C)(C)NC(=O)[C@@H](N)Cc1ccc(O)cc1)[C@@H](C)O)[C@@H](C)O)[C@@H](C)CC)C(=O)N[C@@H](CCC(=O)O)C(=O)N[C@@H](Cc1ccccc1)C(=O)N[C@@H](CC(C)C)C(=O)N[C@@H](CC(C)C)C(=O)N[C@@H](CCC(=O)O)C(=O)NC(C)(C)C(=O)N[C@@H](Cc1c[nH]cn1)C(=O)N1CCC[C@H]1C(=O)N[C@@H](CO)C(=O)N[C@@H](CO)C(=O)NCC(=O)N[C@@H](C)C(=O)N1CCC[C@H]1C(=O)N1CCC[C@H]1C(=O)N1CCC[C@H]1C(=O)N[C@@H](CO)C(N)=O [Compound 16] | 335.19 | 33.93 | 0.02 | 220.00 | – | – | – | – | – | – | –
